Source: patent US10941162B2, “Heterocyclic compounds and uses thereof” (Infinity Pharmaceuticals, Inc., priority 2014, dated 2021)

The chains behind the UniProt entries cited, without tags or fusion partners.
UniProt P42338, whole entry: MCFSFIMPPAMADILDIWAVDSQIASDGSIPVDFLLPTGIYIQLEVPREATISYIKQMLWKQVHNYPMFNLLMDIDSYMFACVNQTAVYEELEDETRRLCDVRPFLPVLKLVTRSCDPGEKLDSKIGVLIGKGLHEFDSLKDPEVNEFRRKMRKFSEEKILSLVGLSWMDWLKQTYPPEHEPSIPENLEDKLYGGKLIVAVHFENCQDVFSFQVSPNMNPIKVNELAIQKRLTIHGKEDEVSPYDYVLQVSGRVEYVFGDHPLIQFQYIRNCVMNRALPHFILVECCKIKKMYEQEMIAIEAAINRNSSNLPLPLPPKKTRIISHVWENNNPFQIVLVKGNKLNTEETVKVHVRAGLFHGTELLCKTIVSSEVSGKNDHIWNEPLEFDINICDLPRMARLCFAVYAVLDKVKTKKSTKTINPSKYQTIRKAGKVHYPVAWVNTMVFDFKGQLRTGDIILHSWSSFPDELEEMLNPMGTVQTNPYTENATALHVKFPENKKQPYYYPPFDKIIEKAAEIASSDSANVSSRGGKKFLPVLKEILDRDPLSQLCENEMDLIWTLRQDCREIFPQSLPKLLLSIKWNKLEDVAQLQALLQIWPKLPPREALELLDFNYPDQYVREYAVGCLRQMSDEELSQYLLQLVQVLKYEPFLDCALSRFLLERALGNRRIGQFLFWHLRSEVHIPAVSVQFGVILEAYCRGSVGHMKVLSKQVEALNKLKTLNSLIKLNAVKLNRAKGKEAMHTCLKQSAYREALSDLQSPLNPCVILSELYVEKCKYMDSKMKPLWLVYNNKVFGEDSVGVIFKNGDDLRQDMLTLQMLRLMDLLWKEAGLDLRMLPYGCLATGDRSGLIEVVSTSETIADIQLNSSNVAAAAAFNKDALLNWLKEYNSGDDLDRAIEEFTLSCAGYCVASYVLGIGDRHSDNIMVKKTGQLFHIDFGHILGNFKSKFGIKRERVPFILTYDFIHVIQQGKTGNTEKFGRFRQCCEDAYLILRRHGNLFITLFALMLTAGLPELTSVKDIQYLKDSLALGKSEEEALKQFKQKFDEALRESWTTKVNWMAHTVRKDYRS
UniProt Q9JHG7, whole entry: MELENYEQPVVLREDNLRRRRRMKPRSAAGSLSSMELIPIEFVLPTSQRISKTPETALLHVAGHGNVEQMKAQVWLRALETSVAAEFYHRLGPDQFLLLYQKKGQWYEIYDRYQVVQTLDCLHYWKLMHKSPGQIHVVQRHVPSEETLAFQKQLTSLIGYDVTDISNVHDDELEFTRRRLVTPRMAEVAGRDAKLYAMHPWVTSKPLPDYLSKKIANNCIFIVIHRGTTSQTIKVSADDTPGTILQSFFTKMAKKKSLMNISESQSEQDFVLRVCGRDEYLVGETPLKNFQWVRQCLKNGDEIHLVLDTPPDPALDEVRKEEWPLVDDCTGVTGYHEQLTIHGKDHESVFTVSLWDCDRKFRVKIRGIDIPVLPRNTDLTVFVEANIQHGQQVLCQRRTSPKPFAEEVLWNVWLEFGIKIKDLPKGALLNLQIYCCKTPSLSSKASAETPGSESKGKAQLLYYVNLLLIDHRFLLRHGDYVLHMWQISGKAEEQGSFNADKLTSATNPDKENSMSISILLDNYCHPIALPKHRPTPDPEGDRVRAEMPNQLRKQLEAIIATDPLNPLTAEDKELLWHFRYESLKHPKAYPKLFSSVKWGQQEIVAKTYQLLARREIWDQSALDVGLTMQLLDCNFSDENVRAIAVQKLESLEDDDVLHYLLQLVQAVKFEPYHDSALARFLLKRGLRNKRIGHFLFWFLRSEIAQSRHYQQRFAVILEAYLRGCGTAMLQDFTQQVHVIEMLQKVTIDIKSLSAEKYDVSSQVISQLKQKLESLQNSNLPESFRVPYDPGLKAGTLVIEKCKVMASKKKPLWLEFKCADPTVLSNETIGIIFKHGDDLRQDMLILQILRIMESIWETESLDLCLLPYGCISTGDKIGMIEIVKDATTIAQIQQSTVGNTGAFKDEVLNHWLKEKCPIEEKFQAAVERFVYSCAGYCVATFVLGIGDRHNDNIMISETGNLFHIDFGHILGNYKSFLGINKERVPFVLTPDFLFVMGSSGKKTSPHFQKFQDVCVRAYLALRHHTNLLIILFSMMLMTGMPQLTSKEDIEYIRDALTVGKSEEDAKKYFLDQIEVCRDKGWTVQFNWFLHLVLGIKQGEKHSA
UniProt P48736, whole entry: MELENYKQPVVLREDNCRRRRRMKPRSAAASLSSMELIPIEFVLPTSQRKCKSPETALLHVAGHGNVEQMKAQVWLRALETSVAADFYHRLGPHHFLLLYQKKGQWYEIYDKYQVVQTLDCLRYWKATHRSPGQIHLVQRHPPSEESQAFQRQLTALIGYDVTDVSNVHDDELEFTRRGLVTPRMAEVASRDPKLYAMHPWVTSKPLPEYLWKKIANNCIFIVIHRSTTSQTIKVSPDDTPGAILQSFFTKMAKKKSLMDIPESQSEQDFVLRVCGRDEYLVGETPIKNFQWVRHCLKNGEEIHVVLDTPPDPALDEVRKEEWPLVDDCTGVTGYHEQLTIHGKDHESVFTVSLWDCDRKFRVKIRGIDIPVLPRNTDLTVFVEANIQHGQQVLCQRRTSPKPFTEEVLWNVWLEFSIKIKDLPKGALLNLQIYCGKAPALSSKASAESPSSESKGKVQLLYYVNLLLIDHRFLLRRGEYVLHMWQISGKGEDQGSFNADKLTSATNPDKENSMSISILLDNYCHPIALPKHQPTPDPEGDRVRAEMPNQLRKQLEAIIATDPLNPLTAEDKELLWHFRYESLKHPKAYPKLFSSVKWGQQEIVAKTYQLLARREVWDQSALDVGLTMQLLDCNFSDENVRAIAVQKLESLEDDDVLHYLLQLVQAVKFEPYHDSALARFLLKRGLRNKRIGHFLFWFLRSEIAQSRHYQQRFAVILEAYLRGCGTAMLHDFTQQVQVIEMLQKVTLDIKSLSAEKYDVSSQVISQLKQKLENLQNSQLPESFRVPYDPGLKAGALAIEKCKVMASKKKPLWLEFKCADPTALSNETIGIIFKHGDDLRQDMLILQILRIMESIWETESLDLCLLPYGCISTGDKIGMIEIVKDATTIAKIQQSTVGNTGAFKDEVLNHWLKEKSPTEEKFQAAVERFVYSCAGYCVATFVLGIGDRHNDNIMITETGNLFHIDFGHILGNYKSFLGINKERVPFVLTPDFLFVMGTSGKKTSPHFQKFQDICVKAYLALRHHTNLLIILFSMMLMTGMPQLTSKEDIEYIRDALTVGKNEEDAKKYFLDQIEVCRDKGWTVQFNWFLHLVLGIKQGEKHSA

Key:
PI3K β = PI3K β (Homo sapiens, UniProt P42338); experiment: PI3-Kinase in vitro IC50 assay, β isoform; format: biochemical; details: read-out: PI3K β IC50
Description: A PI3-Kinase HTRF® assay kit (cat No. 33-016) purchased from Millipore Corporation is used to screen compounds provided herein. This assay uses specific, high affinity binding of the GRP1 pleckstrin homology (PH) domain to PIP3, the product of a Class 1A or 1B PI3 Kinase acting on its physiological substrate PIP2. During the detection phase of the assay, a complex is generated between the GST-tagged PH domain and biotinylated short chain PIP3. The biotinylated PIP3 and the GST-tagged PH domain recruited fluorophores (Streptavidin-Allophycocyanin and Europium-labeled anti-GST respectively) to form the fluorescence resonance energy transfer (FRET) architecture, generating a stable time-resolved FRET signal. The FRET complex is disrupted in a competitive manner by non-biotinylated PIP3, a product formed in the PI3 Kinase assay. PI3 Kinase α, β, γ or δ activity is assayed using the PI3 Kinase HTRF®, assay kit (catalogue No. 33-016) purchased from Millipore Corporation. […] The assay is carried out in 384-well format and detected using a Perkin Elmer EnVision Xcite Multilabel Reader. […] Plates are then read on Envision plate reader in luminescence mode. Data are converted to % inhibition using the following equation below: [formula] where S is the sample luminescence, Pos is a positive control without added PI3K, Neg is the negative control without added compound. […]

p110 γ = p110 γ (Mus musculus (Mouse), UniProt Q9JHG7); experiment: Raw264.7 p110 γ assay (PI3K-γ selective cellular assay, phospho-AKT); details: ratio of RAJI p110 δ IC50 to Raw264.7 p110 γ IC50
Description: A compound's ability in selectively inhibiting PI3K-γ can be assessed using RAW264.7 macrophages. Briefly, serum-starved RAW264.7 cells are stimulated with a known GPCR agonist C5a. See, e.g., Camps et al., Nature Medicine (2005) 11(9):936-943. Cells can be treated with test compounds prior to, simultaneously with, or subsequent to the stimulation by C5a. RAW 264.7 cells respond to the complement component fragment C5a through activation of the C5a receptor, and the C5a receptor activates macrophages and induces cell migration. Test compounds' ability to inhibit C5a-mediated AKT phosphorylation is indicative of selective inhibition of PI3K-γ. Thus, by monitoring the reduction of phospho-AKT in stimulated RAW 264.7 cells (using for example, phospho-AKT antibodies), a compound's potential efficacy in selectively inhibiting PI3Kγ can be assessed.
Certain compounds provided herein were tested in RAW 264.7 cell model using procedures as described above.

PI3K γ = PI3K γ (Homo sapiens (Human), UniProt P48736); experiment: PI3-Kinase in vitro IC50 assay, γ isoform; details: ratio of PI3K δ IC50 to PI3K γ IC50
Description: A PI3-Kinase HTRF® assay kit (cat No. 33-016) purchased from Millipore Corporation is used to screen compounds provided herein. This assay uses specific, high affinity binding of the GRP1 pleckstrin homology (PH) domain to PIP3, the product of a Class 1A or 1B PI3 Kinase acting on its physiological substrate PIP2. During the detection phase of the assay, a complex is generated between the GST-tagged PH domain and biotinylated short chain PIP3. The biotinylated PIP3 and the GST-tagged PH domain recruited fluorophores (Streptavidin-Allophycocyanin and Europium-labeled anti-GST respectively) to form the fluorescence resonance energy transfer (FRET) architecture, generating a stable time-resolved FRET signal. […]
PI3 Kinase α, β, γ or δ activity is assayed using the PI3 Kinase HTRF®, assay kit (catalogue No. 33-016) purchased from Millipore Corporation. […] The assay is carried out in 384-well format and detected using a Perkin Elmer EnVision Xcite Multilabel Reader. […]
Promega ADP-Glo Max assay kit (Cat. No. V7002) can be utilized to determine IC50 values for α, β, δ and γ isoforms of human Class I PI3 kinases (Millipore). […] Plates are then read on Envision plate reader in luminescence mode. […]
[formula] where S is the sample luminescence, Pos is a positive control without added PI3K, Neg is the negative control without added compound. […]

Cc1nn(C)cc1C#Cc1cccc2cc(C(C)NC(=O)c3c(N)nn4cccnc34)c(-c3ccccc3)nc12 (stereo not drawn)
IC50 (PI3K β): 5 to 10 µM | RAJI δ/Raw264.7 γ IC50 (selectivity) (p110 γ): W (W = >1 to <10) | PI3K δ/PI3K γ IC50 (selectivity) (PI3K γ): W (W = >1 to <10)
